From patent publication US7491710B2 (priority 2003, dated 2009)
This is a selection: effects in other tests are not listed, and their absence says nothing.

By UniProt entry, the sequences of proteins in these tests, tags left out. Residues count along the entry.
UniProt Q02763, 776-1124 limits assumed: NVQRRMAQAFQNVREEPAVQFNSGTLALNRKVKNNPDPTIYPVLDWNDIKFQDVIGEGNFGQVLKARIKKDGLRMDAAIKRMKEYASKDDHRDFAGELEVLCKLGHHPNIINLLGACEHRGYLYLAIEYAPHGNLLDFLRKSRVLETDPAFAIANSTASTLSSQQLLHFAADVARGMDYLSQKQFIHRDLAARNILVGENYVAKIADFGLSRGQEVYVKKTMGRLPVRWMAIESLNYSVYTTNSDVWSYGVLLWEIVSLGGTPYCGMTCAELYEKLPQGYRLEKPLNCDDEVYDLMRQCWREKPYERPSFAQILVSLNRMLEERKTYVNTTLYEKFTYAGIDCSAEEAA
UniProt O14965, whole entry: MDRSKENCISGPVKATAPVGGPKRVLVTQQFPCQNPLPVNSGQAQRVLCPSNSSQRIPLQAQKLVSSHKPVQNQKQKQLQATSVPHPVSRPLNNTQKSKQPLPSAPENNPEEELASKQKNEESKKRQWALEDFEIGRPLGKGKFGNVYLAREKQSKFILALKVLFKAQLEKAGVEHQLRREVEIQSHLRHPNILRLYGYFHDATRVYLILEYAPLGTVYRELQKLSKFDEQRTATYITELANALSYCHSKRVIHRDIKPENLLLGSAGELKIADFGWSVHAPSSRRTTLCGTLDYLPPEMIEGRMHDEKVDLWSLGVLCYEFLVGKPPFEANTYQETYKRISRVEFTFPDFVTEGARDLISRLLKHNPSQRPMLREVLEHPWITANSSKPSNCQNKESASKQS
UniProt P35968, 786-1356 limits assumed: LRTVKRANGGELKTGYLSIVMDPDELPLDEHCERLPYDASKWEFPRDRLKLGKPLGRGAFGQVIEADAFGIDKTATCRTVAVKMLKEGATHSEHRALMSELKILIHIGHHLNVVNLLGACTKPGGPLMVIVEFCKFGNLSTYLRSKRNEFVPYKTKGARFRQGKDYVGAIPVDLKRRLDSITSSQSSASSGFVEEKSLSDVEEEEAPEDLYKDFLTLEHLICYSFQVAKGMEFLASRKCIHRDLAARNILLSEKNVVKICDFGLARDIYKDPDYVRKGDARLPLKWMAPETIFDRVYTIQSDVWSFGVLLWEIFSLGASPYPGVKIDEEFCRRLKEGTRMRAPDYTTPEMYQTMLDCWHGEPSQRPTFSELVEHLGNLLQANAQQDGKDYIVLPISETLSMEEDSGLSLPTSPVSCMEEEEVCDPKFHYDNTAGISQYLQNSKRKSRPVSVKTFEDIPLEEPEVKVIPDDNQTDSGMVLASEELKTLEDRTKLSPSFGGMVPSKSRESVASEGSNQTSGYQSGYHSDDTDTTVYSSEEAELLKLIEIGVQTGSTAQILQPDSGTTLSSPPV

How the values were obtained:
human Tie2 = human Tie2 (Homo sapiens, UniProt Q02763); experiment: Assay for phosphorylation of PLC by Tie2 (GST-Tie2, Flashplate); type: biochemical; settings: read-out: TIE2 IC50
Aurora2 kinase = Aurora2 kinase (Homo sapiens, UniProt O14965); settings: read-out: Au2 IC50
human KDR enzyme = human KDR enzyme (Homo sapiens, UniProt P35968); experiment: In vitro KDR enzyme substrate phosphorylation assay (scintillation); type: biochemical; settings: read-out: KDR IC50
CDK2/cyclin E = CDK2/cyclin E (Homo sapiens, UniProt P24941); experiment: CDK2/cyclin E Flashplate assay in 96-well format; type: biochemical; settings: read-out: CDK2 IC50

Methylphosphonic acid 3-[6-(2-diethylamino-ethoxy)-1H-indol-2-yl]-1-indazol-5-yl ester methyl ester
IC50 (human Tie2): 13 nM
IC50 (Aurora2 kinase): 17 nM
IC50 (human KDR enzyme): 122 nM
IC50 (CDK2/cyclin E): 128 nM
